The values that follow are results of earlier work, collected in patent publication US9675592B2, “Methods and compositions for bacteria infections” (priority 2013, dated 2017).

Conditions in all cases: cited from earlier work
Series [1] deals with vanA containing VRSA strain VRS1.
In series [2] the test system is hetero VISA isolate, hVISA 2275.
Series [3] relates to vancomycin intermediate resistant Staphylococcus aureus strain, VISA 2283.

The structures appear in SMILES notation. Values joined by “and” are separate entries in the source; they are usually repeats but may differ in a detail not shown here. Identical values can stand only once.

Regarding `CCN(CC)CCOc1ccc(C(=C(Cl)c2ccccc2)c2ccccc2)cc1` [Clo, Clomiphene], the “fold decrease Van MIC” value was 2 fold and 4 fold in series [1]; 2 fold and 4 fold in series [2]; 2 fold in series [3].
